# US20230248814A1, “COMPOSITIONS AND METHODS FOR TREATING MERKEL CELL CARCINOMA (MCC) USING HLA CLASS I SPECIFIC EPITOPES” (The Broad Institute, Inc., priority 2020, published 2023)
# Test system: MCC lines
# Assay: Flow cytometry for HLA-I surface expression in MCC lines after interferon treatment
# Type: cell-based, human
# Settings: two lines (MCC-290, MCC-301); 24 hours
# Method: Flow cytometry. Cells were dissociated with Versene and incubated with 5 µL Human TruStain FcX (Fc Receptor Blocking Solution; Biolegend # 422302) per million cells in 100 µL at room temperature for 10 min. Fluorophore-conjugated antibodies or respective isotype controls were added and incubated for another 30 min at 4° C. Cells were then washed once with PBS and resuspended in PBS or 4% paraformaldehyde and analyzed on an LSR Fortessa cytometer. For HLA-I and HLA-II detection, the following antibodies were used: HLA-ABC (W6/32 clone) conjugated to PE (BioLegend # 311406), APC (BioLegend # 311410), or AF647 (Santa Cruz Biotechnology # sc32235 AF647), and HLA-DR-FITC (BioLegend # 307604).
molecule,measurement,value
"IFN-β: type I IFN (protein, UniProt P01574 22-187, looked up) Interferon beta: MSYNLLGFLQRSSNFQCQKLLWQLNGRLEYCLKDRMNFDIPEEIKQLQQFQKEDAALTIYEMLQNIFAIFRQDSSSTGWNETIVENLLANVYHQINHLKTVLEEKLEKEDFTRGKLMSSLHLKRYYGRILHYLKAKEYSHCAWTIVRVEILRNFYFINRLTGYLRN",HLA I surface upregulation by type I interferon,could be upregulated; also recorded: upregulate HLA-I

# Entries after “also recorded” stand apart in the source; their conditions may differ.
